# Experimental data taken from article PMC6395531 (2019).
# System: tester strains TA98, TA100, TA1535, TA97a, WP2 uvrA and TA1537
# Details: with or without S9; monotartaric salts
smiles,measurement,value
"CCc1cc(F)c2nc(N3CCC(NC4CCOCC4)CC3)c(-c3nc(C)no3)c(C)c2c1 [Compound 58, 1-(6-ethyl-8-fluoro-4-methyl-3-(3-methyl-1,2,4-oxadiazol-5-yl)quinolin-2-yl)-N-(tetrahydro-2H-pyran-4-yl)piperidin-4-amine]",mutagenicity in the Ames assays,"Neither analog showed mutagenicity in the Ames assays, with or without the addition of S9"
